{
  "source": "patent US20230134922A1",
  "about": "“TOPICAL DELIVERY OF BUFFERING AGENTS FOR PREVENTION AND TREATMENT OF VIRAL INFECTIONS” (Dyve Biosciences, Inc., priority 2020, published 2023)",
  "test_system": "MCF-7 tumors",
  "test": "MCF-7 tumor growth in SCID mice, doxorubicin with oral or topical bicarbonate",
  "type": "in vivo",
  "data": [
    {"substance": "doxorubicin", "values": [
      {"measurement": "anal discharge (GI tract cytotoxicity)", "setting": "Group D, doxorubicin with oral bicarbonate", "value": "anal discharge"},
      {"measurement": "anal discharge (GI tract cytotoxicity)", "setting": "Group F, doxorubicin with topical bicarbonate formulation", "value": "not noted"}
    ]}
  ]
}
